Laboratory results published in patent US20200277350A1.

Biological target: Human IL10R1 (R&D, 9100-R1-050) (human) (UniProt Q13651)
Test: ELISA, plate coated with human IL10R1, detection with goat anti-hIgG-HRP

EC50: 2.94 ng/mL
Substance: Erb-(IL10)2 (Fc fusion)
